According to the NIST ThermoML archive (doi:10.1016/j.jct.2008.12.003):

Conditions: 101.33 kPa, Liquid, Pycnometric method

mass density (303.15 K): 1116 ± 1 kg/m3
mass density (313.15 K): 1108 ± 1 kg/m3
mass density (323.15 K): 1100 ± 1 kg/m3
mass density (333.15 K): 1093 ± 1 kg/m3
mass density (343.15 K): 1086 ± 1 kg/m3
SMILES: OCCOCCOCCOCCO [tetraethylene glycol]

Numbers after ± are expanded uncertainties.
